Values quoted from earlier work in article PMC4079055 (The New England journal of medicine, 2014).

System: advanced, ALK-rearranged NSCLC
Details: across multiple studies; cited from earlier work

Question: Which Response rates does the source give for C[C@@H](Oc1cc(-c2cnn(C3CCNCC3)c2)cnc1N)c1c(Cl)ccc(F)c1Cl [crizotinib] here?
Answer: approximately 60%
